This is an account of results in patent US4234691A, “L-Lysine α-oxidase” (Yamasa Shoyu Kabushiki Kaisha, priority 1978, dated 1980).

For series [1] the following is noted: incubation at pH 7.4, 20 minutes.
The conditions of series [2]: purified preparation of Example 1; 1 unit = 1 μmol α-keto-ε-aminocaproic acid per minute at 37° C. As for the experimental part:
The activity of the present enzyme was measured in accordance with Soda's method (Analytical Biochemistry Vol. 25, p. 228, 1968) in the following manner. A reaction mixture consisting of 0.7 ml of 0.1 M potassium phosphate buffer (pH 8.0), 0.1 ml of catalase (750 U/ml), 0.1 ml of 0.1 M L-lysine solution and 0.1 ml of the present enzyme solution was incubated at 37° C. for 20 minutes with gentle shaking. After the incubation the reaction was terminated by the addition of 0.1 ml of 25% trichloroacetic acid. To the resulting reaction mixture were added 1.9 ml of 1 M acetate buffer (pH 5.0) and 0.8 ml of 0.1% 3-methyl-2-benzothiazolone hydrazone hydrochloride solution. The mixture was further incubated at 30° C. for 30 minutes and then allowed to cool to room temperature, after which measurement of optical density at 318 nm was carried out. The formed α-keto-ε -aminocaproic acid thus formed was determined from the resulting calibration curve. One unit of the enzyme was defined as the quantity of the enzyme catalyzing the formation of 1 μmol of α-keto-ε-aminocaproic acid at 37° C. per minute. The relative activity of the enzyme was also assayed by manometric and polarographic determination of the oxygen consumption.

For the substance L-lysine α-oxidase, the “Temperature up to which the enzyme is stable” value in series [1] is “up to 55 °C”. Also, the Specific activity in series [2] is given as 85.5 units/mg of protein.
